From the Kinase Knowledgebase extract (Sharma et al. 2016) come the findings set out here.

Sequences of proteins named here, by UniProt entry; tags and fusion partners are left off. A change or cut given only in a name is not applied to a line headed by its entry.
UniProt P42336, whole entry, looked up: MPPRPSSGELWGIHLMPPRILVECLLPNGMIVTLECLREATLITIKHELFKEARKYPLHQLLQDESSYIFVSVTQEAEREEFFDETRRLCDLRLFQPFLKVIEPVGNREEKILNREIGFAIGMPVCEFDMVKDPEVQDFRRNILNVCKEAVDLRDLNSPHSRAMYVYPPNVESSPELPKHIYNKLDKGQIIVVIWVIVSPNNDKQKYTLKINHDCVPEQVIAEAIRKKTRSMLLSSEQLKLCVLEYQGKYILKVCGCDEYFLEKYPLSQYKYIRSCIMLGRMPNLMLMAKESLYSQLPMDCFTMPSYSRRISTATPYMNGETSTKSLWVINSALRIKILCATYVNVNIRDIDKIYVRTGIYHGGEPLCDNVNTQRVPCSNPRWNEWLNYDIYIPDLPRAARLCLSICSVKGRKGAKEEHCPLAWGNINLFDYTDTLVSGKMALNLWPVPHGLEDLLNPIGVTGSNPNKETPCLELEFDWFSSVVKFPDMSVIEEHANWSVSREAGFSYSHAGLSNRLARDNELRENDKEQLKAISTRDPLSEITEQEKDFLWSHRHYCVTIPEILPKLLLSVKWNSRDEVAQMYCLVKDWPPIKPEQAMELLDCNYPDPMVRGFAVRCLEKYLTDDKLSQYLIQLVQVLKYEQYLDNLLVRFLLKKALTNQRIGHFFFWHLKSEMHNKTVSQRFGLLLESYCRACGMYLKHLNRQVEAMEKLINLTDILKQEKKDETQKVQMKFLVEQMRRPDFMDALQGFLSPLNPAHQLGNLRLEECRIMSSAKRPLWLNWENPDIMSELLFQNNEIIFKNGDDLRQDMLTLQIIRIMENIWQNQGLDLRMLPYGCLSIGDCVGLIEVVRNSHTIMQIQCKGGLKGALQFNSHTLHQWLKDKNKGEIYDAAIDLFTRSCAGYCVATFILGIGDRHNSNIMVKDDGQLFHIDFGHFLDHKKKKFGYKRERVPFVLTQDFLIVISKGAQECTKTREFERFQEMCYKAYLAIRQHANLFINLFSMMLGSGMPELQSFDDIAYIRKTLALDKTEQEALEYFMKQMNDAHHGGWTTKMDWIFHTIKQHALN
UniProt O00329: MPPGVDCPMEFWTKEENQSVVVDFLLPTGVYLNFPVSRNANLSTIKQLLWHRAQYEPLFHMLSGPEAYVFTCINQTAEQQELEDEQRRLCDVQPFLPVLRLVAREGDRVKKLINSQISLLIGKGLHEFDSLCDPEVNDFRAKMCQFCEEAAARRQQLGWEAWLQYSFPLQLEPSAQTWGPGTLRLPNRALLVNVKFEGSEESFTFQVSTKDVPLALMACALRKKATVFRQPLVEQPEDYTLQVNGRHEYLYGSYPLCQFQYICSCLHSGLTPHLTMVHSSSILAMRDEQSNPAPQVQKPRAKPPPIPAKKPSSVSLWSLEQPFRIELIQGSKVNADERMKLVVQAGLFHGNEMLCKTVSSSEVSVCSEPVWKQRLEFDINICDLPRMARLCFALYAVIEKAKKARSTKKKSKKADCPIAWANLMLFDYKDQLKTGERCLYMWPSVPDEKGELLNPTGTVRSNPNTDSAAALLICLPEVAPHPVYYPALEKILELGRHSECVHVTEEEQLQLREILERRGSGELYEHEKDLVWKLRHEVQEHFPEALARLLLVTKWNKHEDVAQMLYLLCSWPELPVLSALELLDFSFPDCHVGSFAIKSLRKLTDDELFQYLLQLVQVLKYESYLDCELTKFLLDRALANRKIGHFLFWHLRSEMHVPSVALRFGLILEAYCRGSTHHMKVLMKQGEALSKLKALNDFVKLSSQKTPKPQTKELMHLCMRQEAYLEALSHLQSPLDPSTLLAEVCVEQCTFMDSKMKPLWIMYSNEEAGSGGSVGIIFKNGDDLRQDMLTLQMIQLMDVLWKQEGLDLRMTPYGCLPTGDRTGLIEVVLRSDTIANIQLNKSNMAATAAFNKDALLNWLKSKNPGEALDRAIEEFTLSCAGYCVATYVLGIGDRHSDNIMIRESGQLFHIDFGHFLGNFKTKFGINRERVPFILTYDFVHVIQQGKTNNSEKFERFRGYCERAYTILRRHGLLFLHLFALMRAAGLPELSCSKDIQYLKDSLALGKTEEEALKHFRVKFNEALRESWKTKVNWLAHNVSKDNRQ
UniProt P42338: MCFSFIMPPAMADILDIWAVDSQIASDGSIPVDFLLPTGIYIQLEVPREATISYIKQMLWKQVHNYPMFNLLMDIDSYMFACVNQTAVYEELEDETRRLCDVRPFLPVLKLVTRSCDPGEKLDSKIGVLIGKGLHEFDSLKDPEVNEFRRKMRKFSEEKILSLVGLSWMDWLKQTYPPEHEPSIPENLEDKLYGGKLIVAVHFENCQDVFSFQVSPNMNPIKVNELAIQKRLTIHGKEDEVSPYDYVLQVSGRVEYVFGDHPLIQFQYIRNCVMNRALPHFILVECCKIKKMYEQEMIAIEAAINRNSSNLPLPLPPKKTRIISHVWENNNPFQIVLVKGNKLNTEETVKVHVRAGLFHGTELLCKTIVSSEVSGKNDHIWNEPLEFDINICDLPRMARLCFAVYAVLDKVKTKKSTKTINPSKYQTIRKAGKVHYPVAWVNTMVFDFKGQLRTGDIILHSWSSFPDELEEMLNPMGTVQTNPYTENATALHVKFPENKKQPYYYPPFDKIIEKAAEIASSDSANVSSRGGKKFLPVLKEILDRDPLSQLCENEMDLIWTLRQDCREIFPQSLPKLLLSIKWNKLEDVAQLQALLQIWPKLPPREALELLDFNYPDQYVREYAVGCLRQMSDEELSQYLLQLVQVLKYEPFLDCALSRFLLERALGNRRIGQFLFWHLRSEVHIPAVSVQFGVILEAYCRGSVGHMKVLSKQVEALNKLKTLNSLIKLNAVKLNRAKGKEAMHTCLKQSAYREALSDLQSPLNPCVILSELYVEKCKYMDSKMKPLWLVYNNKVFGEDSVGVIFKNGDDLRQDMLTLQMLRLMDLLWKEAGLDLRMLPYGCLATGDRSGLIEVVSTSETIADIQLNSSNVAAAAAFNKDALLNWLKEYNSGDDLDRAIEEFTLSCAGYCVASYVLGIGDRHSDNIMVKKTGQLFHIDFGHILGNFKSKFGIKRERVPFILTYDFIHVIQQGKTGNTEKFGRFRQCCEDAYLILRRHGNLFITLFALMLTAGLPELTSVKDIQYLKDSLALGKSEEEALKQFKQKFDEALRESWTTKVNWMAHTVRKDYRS

In general, IC50 refers to the point on the concentration scale where inhibition reaches its midpoint. A lower IC50 goes with inhibition by little substance.

Some targets named below: PIK3CA (human) (UniProt P42336); PIK3CD (Human) (UniProt O00329); PIK3CB (Human) (UniProt P42338).
Assay in all cases: Enzyme Assay

As to `CC(=O)Nc1nc2ccc(-c3nn(Cc4cc5cccc(C)c5c(=O)n4-c4ccccc4C)c4ncnc(N)c34)cc2s1`, the results for the half-inhibitory concentration (IC50) against PIK3CA (human) and on PIK3CD (Human) were 100 to 1000 nM and below 100 nM, respectively. Consider `Cc1ccccc1-n1c(Cn2nc(-c3cc(O)cc(F)c3)c3c(N)ncnc32)cc2cccc(C)c2c1=O`, for which, at PIK3CB (Human), the IC50 is 100 to 1000 nM.
